Data reported in EP1220857B1, “GONADOTROPIN RELEASING HORMONE RECEPTOR ANTAGONISTS AND THEIR RELATED METHODS OF USE” (NEUROCRINE BIOSCIENCES, INC., priority 1999, dated 2001).

Amino acid sequences for entries named in this document (tags omitted).
UniProt P30968, whole entry: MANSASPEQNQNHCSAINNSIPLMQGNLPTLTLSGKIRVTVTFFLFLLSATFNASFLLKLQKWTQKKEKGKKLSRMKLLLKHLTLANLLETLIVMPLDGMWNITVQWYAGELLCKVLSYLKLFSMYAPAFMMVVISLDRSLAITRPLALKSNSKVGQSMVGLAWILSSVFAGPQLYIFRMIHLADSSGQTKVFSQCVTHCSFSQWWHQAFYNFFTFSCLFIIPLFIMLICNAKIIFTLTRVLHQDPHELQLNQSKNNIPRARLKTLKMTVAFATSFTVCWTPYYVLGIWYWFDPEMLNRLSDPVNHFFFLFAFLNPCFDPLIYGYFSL

Molecular target: GnRH receptor (Homo sapiens, UniProt P30968)
Assay: GnRH receptor membrane binding assay
Conditions: displacement of [125I]-labeled GnRH peptide from membranes of cells transfected with GnRH receptor expression vectors, Ki by Cheng-Prusoff
Protocol: Activity of GnRH receptor antagonists are typically calculated from the IC50 as the concentration of a compound necessary to displace 50% of the radiolabeled ligand from the GnRH receptor, and is reported as a "Ki" value calculated by the following equation: Ki =(IC50)/(1 + L / KD) [formula] where L = radioligand and KD = affinity of radioligand for receptor (Cheng and Prusoff, Biochem. Pharmacol. 22:3099, 1973). GnRH receptor antagonists of this invention have a Ki of 100 µM or less. In a preferred embodiment of this invention, the GnRH receptor antagonists have a Ki of less than 10 µM, and more preferably less than 1µM. More preferred compounds include: 1-1, 1-2-5, 12, 13-15, 19, 21, 27, 31, 32, 34, 37, 55, 58, 64, 73, 2B, 2D, 3A, 3B, 3D, 4A, 4B, 4C, 4D, 4G, 4H, 5A and 5B (see Examples below).
The GnRH analog is labeled by the chloramine-T method. To 10 µg of peptide in 20 µl of 0.5M sodium phosphate buffer, pH 7.6, is added 1 mCi of Na125I, followed by 22.5 µg chloramine-T and the mixture vortexed for 20 sec. The reaction is stopped by the addition of 60 µg sodium metabisulfite and the free iodine is removed by passing the iodinated mixture through a C-8 Sep-Pak cartridge (Millipore Corp., Milford, MA). The peptide is eluted with a small volume of 80% acetonitrile/water. The recovered labeled peptide is further purified by reverse phase HPLC on a Vydac C-18 analytical column (The Separations Group, Hesperia, CA) on a Beckman 334 gradient HPLC system using a gradient of acetonitrile in 0.1% TFA. The purified radioactive peptide is stored in 0.1 % BSA/20% acetonitrile/0.1% TFA at -800C and can be used for up to 4 weeks.
Cells stably, or transiently, transfected with GnRH receptor expression vectors are harvested, resuspended in 5% sucrose and homogenized using a polytron homogenizer (2x 15 sec). Nuclei are removed by centrifugation (3000 x g for 5 min.), and the supernatant centrifuged (20,000 x g for 30 min, 4° C) to collect the membrane fraction. The final membrane preparation is resuspended in binding buffer (10mM Hepes (pH 7.5), 150 mM NaCl, and 0.1% BSA) and stored at -70°C. Binding reactions are performed in a Millipore MultiScreen 96-well filtration plate assembly with polyethylenimine coated GF/C membranes. The reaction is initiated by adding membranes (40 ug protein in 130 ul binding buffer) to 50ul of [^125I]-labeled GnRH peptide (~100,000 cpm), and 20ul of competitor at varying concentrations. The reaction is terminated after 90 minutes by application of vacuum and washing (2X) with phosphate buffered saline. Bound radioactivity is measured using 96-well scintillation counting (Packard Topcount) or by removing the filters from the plate and direct gamma counting. Ki values are calculated from competition binding data using non-linear least squares regression using the Prism software package (GraphPad Software).

Row | SMILES | Ki | Ki (tested form: TFA)
1 | COc1cccc(-c2c(C)n(Cc3ccccc3F)c3nc(C(C)(C)C)c(CN(C)CCc4ccccn4)n3c2=O)c1 |  | < 1000 nM
2 | COc1cccc(-c2c(C)n(Cc3ccccc3F)c3nc(C(C)(C)C)c(CN(C)C(C)c4ccccc4)n3c2=O)c1 (centres unmarked) | < 1000 nM | 
3 | Cc1c(-c2ccccc2F)c(=O)n2c(CN(C)CCc3ccccn3)c(C(C)(C)C)nc2n1Cc1ccccc1F | < 1000 nM | 
4 | COC(=O)C(C)(C)c1nc2n(Cc3ccccc3F)c(C)c(-c3cccc(OC)c3)c(=O)n2c1CN(C)CCc1ccccn1 | < 1000 nM | 
5 | CCN(CC)CCN(C)Cc1c(C(C)(C)C)nc2n(Cc3ccccc3F)c(C)c(-c3ccc4c(c3)OCO4)c(=O)n12 | < 1000 nM | 
6 | Cc1c(-c2ccccc2)c(=O)n2c(CN(C)Cc3ccco3)c(C(C)(C)C)nc2n1Cc1ccccc1F | < 1000 nM | 
7 | COC(=O)C(C)(C)c1nc2n(Cc3ccccc3F)c(C)c(-c3cccc(OC)c3)c(=O)n2c1CNCc1ccccn1 | < 1000 nM | 
8 | COC(=O)C(C)(C)c1nc2n(Cc3ccccc3F)c(C)c(-c3cccc(OC)c3)c(=O)n2c1CN(C)Cc1ccccc1 | < 1000 nM | 
9 | CCOC(=O)Cc1nc2n(Cc3ccccc3F)c(C)c(-c3cccc(OC)c3)c(=O)n2c1CN(C)Cc1ccccc1 | < 1000 nM | 

Further lines, results first:

Row | Ki | Ki (tested form: TFA) | SMILES
10 | < 1000 nM |  | CCOC(=O)Cc1nc2n(Cc3ccccc3F)c(C)c(-c3cccc(OC)c3)c(=O)n2c1CN(C)CCc1ccccn1
11 | < 1000 nM |  | COC(=O)C(C)(C)c1nc2n(Cc3ccccc3F)c(C)c(-c3cccc(OC)c3F)c(=O)n2c1CN(C)CCc1ccccn1
12 | < 1000 nM |  | COC(=O)C(C)(C)c1nc2n(Cc3ccccc3F)c(C)c(-c3cccc(OC)c3)c(=O)n2c1CN(C)CCc1ccccc1
13 | < 1000 nM |  | COc1cccc(-c2c(C)n(Cc3ccccc3F)c3nc(C4(C)CCOC4=O)c(CN(C)Cc4ccccc4)n3c2=O)c1 (centres unmarked)
14 | < 1000 nM |  | COc1cccc(-c2c(C)n(Cc3ccccc3F)c3nc(C(C)(C)C)c(CN(C)Cc4ccccn4)n3c2=O)c1
15 | < 1000 nM |  | CC(=O)c1cccc(-c2c(C)n(Cc3ccccc3F)c3nc(C(C)(C)C)c(CN(C)Cc4ccccc4)n3c2=O)c1
16 | < 1000 nM |  | CC(=O)c1cccc(-c2c(C)n(Cc3ccccc3F)c3nc(C(C)(C)C)c(CN(C)CCc4ccccn4)n3c2=O)c1
17 | < 1000 nM |  | COCCN(C)Cc1c(C(C)(C)C)nc2n(Cc3ccccc3F)c(C)c(-c3ccc4c(c3)OCO4)c(=O)n12
18 | < 1000 nM |  | COc1cccc(-c2c(C)n(Cc3ccccc3F)c3nc(C4(C)CCOC4=O)c(CN(C)Cc4ccco4)n3c2=O)c1 (centres unmarked)
19 | < 1000 nM |  | Cc1c(-c2ccc3c(c2)OCO3)c(=O)n2c(CN(C)Cc3ccccn3)c(C(C)(C)C)nc2n1Cc1ccccc1F
20 | < 1000 nM |  | COC(=O)C(C)(C)c1nc2n(Cc3ccccc3F)c(C)c(-c3cccc(OC)c3)c(=O)n2c1CN(C)Cc1ccco1
